Assay results from patent publication US20250114653A1, “COMPOSITIONS, METHODS, AND ARTICLES COMPRISING COCAINE ESTERASE FOR DETOXIFYING AN ORGANOPHOSPHATE-BASED AGENT” (published 2025).

Tested on: cocaine esterase
Settings: incubated with protein at 37° C., time points over 6 hours, LC/MS/MS peak area

## COP(=O)(OC)OC=C(Cl)Cl
  substrate depletion by cocaine esterase: depleted to a level indistinguishable from noise within the first hour
